{"source": "paper PMC7190706", "about": "“A Self-Assembling Lipidic Peptide and Selective Partial V2 Receptor Agonist Inhibits Urine Production” (Scientific Reports, 2020)", "biological_target": "T1, OT receptor (Rattus norvegicus, UniProt P70536)", "T1 construct": "OT receptors from rat uterine strips for our receptor activity assays; from tissue; host or cells: uterine strips of female Wistar rats", "T1 sequence (P70536 1-388)": "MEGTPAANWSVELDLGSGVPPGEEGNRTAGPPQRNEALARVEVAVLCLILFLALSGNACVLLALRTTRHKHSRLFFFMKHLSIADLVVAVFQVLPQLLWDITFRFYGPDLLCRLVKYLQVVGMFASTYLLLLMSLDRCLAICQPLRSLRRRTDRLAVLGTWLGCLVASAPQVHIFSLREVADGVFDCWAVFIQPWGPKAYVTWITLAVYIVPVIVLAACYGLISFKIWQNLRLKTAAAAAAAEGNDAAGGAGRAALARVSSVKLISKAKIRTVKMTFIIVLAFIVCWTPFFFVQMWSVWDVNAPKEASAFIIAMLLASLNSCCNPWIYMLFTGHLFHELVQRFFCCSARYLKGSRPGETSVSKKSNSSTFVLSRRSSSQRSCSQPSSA", "test": "OT induced contractions of isolated uterine strips (organ bath)"}
{"substance": "atosiban [reference compound]", "values": [{"measurement": "effect on OT induced contractions", "setting": "100 nm of inhibitor", "value": "shifted the OT induced contraction-concentration curve to the right"}, {"measurement": "nature of antagonism at the OT receptor", "setting": "from double reciprocal plots", "value": "competitive antagonist"}, {"measurement": "1/Rmax of double reciprocal plot (1/R vs 1/[OT])", "setting": "inhibitor 100 nM, Rmax = maximum contractile response in cm", "value": 0.47}]}
